Assay results: ChEMBL document CHEMBL1144234, “Novel design principle validated: glucopyranosylidene-spiro-oxathiazole as new nanomolar inhibitor of glycogen phosphorylase, potential antidiabetic agent” (Bioorg Med Chem Lett, 2008)

Target: T1, Glycogen phosphorylase, muscle form (Oryctolagus cuniculus, UniProt P00489)
T1 sequence (P00489 whole entry): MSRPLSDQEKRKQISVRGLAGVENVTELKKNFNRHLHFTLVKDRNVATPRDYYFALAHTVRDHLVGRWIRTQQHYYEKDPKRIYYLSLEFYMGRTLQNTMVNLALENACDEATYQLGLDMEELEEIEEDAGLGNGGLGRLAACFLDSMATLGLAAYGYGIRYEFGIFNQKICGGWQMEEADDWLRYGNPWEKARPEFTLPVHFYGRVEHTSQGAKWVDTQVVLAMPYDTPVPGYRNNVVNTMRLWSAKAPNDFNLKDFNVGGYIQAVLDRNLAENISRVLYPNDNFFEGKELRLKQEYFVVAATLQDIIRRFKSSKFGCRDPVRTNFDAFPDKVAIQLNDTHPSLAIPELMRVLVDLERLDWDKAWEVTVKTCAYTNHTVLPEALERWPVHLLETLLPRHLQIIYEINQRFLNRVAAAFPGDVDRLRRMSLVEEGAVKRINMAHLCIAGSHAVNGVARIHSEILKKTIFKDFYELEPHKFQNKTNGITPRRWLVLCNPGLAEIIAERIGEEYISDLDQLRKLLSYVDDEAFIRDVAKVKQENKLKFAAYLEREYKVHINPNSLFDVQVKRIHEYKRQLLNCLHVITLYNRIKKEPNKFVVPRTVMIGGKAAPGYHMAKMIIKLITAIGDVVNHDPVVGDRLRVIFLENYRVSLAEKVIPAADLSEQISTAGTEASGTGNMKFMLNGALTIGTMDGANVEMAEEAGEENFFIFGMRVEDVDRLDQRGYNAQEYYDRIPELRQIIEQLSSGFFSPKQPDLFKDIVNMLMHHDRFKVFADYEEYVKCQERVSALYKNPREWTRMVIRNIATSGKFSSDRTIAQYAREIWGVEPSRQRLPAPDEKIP

## O=C(NC(=O)c1ccccc1)N[C@@H]1O[C@H](CO)[C@@H](O)[C@H](O)[C@H]1O
  Ki: 4.6 µM
